Test results as given in publication PMC11926787 (ACS Chemical Neuroscience, 2025).

Sequences of proteins named here, by UniProt entry; tags and fusion partners are left off.
UniProt P21397, whole entry: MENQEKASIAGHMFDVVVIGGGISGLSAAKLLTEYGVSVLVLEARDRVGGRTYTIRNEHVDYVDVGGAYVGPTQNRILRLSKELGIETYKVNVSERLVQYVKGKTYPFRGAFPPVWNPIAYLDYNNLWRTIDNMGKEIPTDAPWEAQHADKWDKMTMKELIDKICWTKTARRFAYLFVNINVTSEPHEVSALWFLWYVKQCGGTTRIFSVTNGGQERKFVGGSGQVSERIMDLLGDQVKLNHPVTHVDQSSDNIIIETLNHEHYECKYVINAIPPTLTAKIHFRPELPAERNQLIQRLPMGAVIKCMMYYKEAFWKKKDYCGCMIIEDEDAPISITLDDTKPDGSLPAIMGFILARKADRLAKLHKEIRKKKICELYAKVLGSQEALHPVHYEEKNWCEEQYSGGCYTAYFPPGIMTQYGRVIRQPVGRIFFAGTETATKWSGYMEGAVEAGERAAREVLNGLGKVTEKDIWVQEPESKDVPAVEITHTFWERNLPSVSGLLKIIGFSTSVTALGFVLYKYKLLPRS

Biological target: human MAO-A (Homo sapiens, UniProt P21397)
Assay: MAO-Glo bioluminescent enzymatic assay, MAO-A
Format: biochemical
Conditions: summary column of Tables 3 and 4

SMILES: C#CCN(C)CCCOc1ccc(Cl)cc1Cl [clorgyline]
- MAO-A inhibition (yes/no): yes
